Assay results taken from patent US6002008A, “Substituted 3-cyano quinolines” (American Cyanamid Company, priority 1998, dated 1999).

Protein sequences, listed by entry. Tags and fused reporters are not part of them. Residues count along the entry.
UniProt P00533, 669-1210: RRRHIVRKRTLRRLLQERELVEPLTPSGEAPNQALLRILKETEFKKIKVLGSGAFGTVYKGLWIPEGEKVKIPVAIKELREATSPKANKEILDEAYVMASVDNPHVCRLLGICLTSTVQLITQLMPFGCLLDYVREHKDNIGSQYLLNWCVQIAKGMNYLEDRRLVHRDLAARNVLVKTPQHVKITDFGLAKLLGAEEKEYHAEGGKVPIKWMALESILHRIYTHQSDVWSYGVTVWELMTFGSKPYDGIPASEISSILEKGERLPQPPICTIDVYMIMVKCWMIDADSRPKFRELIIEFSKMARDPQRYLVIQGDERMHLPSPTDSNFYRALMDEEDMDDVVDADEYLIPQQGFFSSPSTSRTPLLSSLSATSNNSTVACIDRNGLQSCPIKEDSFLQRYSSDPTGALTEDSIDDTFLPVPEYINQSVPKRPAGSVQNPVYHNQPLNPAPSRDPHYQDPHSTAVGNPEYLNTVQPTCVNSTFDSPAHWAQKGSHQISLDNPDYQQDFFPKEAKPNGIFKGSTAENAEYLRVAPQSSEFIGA
UniProt P29317, 24-976: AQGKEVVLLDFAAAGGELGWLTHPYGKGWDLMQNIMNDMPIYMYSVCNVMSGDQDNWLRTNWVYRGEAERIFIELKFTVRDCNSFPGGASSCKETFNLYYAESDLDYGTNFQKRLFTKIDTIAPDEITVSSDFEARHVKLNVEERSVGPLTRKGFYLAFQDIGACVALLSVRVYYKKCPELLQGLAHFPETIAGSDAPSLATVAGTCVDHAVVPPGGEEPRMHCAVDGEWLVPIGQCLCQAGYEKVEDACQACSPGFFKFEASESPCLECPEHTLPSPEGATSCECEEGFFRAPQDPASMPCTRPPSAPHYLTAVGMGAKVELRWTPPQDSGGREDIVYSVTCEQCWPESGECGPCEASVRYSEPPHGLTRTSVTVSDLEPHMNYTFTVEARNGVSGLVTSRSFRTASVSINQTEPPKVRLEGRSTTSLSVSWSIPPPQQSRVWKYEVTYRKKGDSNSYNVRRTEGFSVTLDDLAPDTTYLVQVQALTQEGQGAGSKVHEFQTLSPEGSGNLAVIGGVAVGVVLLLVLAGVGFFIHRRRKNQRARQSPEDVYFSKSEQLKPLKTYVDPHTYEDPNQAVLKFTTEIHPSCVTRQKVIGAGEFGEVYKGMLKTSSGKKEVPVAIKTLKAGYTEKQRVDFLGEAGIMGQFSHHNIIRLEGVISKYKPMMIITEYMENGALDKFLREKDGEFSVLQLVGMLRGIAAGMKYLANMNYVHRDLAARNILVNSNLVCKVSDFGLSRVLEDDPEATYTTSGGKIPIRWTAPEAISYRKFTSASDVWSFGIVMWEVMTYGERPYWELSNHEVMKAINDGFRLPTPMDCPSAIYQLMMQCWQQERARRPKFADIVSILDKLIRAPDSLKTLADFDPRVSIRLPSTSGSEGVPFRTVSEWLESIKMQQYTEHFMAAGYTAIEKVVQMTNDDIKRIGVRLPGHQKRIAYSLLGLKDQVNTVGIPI

Tests used:
[1] = tested on: human epidermoid tumors (A431); assay: In vivo inhibition of the growth of human epidermoid tumors (A431) in mice; parameters: species or system human tumor in BALB/c nu/nu female mice
[2] = target: T1, Epidermal Growth Factor Receptor Kinase (His-tagged cytoplasmic domain of EGFR) (Homo sapiens, UniProt P00533); assay: Inhibition of Epidermal Growth Factor Receptor Kinase (EGF-R) using recombinant enzyme; type: biochemical; conditions: average of number of tests, RR-SRC peptide
T1 construct: EGFR cDNA encoding amino acids 645-1186 preceded by Met-Ala-(His)6; made in house; host or cells: Sf9 insect cells, baculovirus vHcEGFR52

[3] = target: T2, Epithelial Cell Kinase (ECK) (Homo sapiens, UniProt P29317); assay: biochemical
[4] = target: T2, Epithelial Cell Kinase (ECK); conditions: read-out: Eck IC50

## CCOc1cc2ncc(C#N)c(Nc3cccc(Br)c3)c2cc1OCC [Example 47, 4-[(3-Bromophenyl)amino]-6,7-diethoxy-3-quinolinecarbonitrile]
[1]; 40 mg/kg/dose IP days 1-10, day 7
  Relative Tumor Growth: 3.22
[1]; 40 mg/kg/dose IP days 1-10, day 14
  Relative Tumor Growth: 6.75
[1]; 40 mg/kg/dose IP days 1-10, day 21
  Relative Tumor Growth: 13.38
[1]; 40 mg/kg/dose IP days 1-10, day 28
  Relative Tumor Growth: 18.59
[1]; 50 mg/kg/dose IP days 1-10, day 7
  Relative Tumor Growth: 2.05
[1]; 50 mg/kg/dose IP days 1-10, day 14
  Relative Tumor Growth: 5.04
[1]; 50 mg/kg/dose IP days 1-10, day 21
  Relative Tumor Growth: 10.02
[1]; 50 mg/kg/dose IP days 1-10, day 28
  Relative Tumor Growth: 14.01
[1]; 100 mg/kg/dose IP days 1-10, day 7
  Relative Tumor Growth: 1.57
[1]; 100 mg/kg/dose IP days 1-10, day 14
  Relative Tumor Growth: 3.36
[1]; 100 mg/kg/dose IP days 1-10, day 21
  Relative Tumor Growth: 5.90
[1]; 100 mg/kg/dose IP days 1-10, day 28
  Relative Tumor Growth: 5.85

## COc1cc2ncc(C#N)c(Nc3cccc([N+](=O)[O-])c3)c2cc1OC [Example 89, 6,7-Dimethoxy-4-(3-nitrophenylamino)quinoline-3-carbonitrile]
[2]
  IC50: 0.1 µM

## CC#CC(=O)Nc1ccc2ncc(C#N)c(Nc3cccc(C)c3)c2c1 [Example 132, N-{3-Cyano-[(3-methylphenyl)amino]-6-quinolinyl}-2-butynamide]
[3]
  IC50: > 58.8 µM

## COc1cc2ncc(C#N)c(Nc3ccc(F)c(Br)c3)c2cc1NC(=O)C=CCN(C)C [Example 208, 4-Dimethylamino-but-2-enoic acid [4-(3-bromo-4-fluoro-phenylamino)-3-cyano-7-methoxy-quinolin-6-yl]-amide]
[1]; Table 11, 80 IP days 1, 5, 9, day 7
  Relative Tumor Growth: 0.82
[1]; Table 11, 80 IP days 1, 5, 9, day 14
  Relative Tumor Growth: 2.29
[1]; Table 11, 80 IP days 1, 5, 9, day 21
  Relative Tumor Growth: 4.80
[1]; Table 11, 80 IP days 1, 5, 9, day 28
  Relative Tumor Growth: 8.09
[1]; Table 11, 80 PO days 1-10, day 7
  Relative Tumor Growth: 0.40
[1]; Table 11, 80 PO days 1-10, day 14
  Relative Tumor Growth: 0.99
[1]; Table 11, 80 PO days 1-10, day 21
  Relative Tumor Growth: 1.46
[1]; Table 11, 80 PO days 1-10, day 28
  Relative Tumor Growth: 2.63
[1]; Table 11 summary
  tumor growth inhibition relative to animals that did not receive any drug: significantly inhibited tumor growth

## COc1ccc(OC)c2c(Nc3ccc(Cl)cc3F)c(C#N)cnc12 [Example 238, 4-(4-Chloro-2-fluoro-phenylamino)-5.8-dimethoxyquinoline-3-carbonitrile]
[4]
  IC50: > 30.3 µM

Like-named read-outs stand apart in the source and are kept apart here.
